Experimental data taken from patent publication US9951014B2, “Mammalian and bacterial nitric oxide synthase inhibitors” (Northwestern University, priority 2014, dated 2018).

Protein sequences, listed by entry. Tags and fused reporters are not part of them.
UniProt O34453, whole entry I218V: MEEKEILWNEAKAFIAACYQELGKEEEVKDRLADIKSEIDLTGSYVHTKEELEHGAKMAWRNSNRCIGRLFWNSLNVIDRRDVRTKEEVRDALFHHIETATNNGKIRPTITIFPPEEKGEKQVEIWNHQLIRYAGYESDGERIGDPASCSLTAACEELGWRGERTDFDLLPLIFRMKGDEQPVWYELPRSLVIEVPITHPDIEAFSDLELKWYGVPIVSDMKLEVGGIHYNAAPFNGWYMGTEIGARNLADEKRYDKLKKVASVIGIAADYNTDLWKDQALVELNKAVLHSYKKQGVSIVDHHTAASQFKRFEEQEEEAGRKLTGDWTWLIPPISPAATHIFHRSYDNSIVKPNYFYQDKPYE

Target: I218V bsNOS (Bacillus subtilis (strain 168), UniProt O34453, I218V)
Experiment: Imidazole displacement, spectral binding constant KS
Conditions: for Kd: I218V bsNOS, Table 8
Protocol: Purified bsNOS was diluted to 2 μM into a buffered solution containing 50 mM Tris (pH 7.6), 10 mM NaCl, 100 μM dithiothreitol and 1 mM imidazole to generate a low spin heme. NOS inhibitors were titrated into the bsNOS-buffered solution and the conversion of the heme group from low spin to high spin was monitored using a Cary 3E UV-visible spectrophotometer.

SMILES | Kd [µM] | fold tighter inhibitor binding to Ile-218 (WT bsNOS) over I218V (imidazole displacement)
Nc1ccc2ccc(CCNCCCc3cccc(F)c3)cc2n1 [Compound 19] | 18 ± 2 | 
Cc1cc(N)nc(-c2ccc(CNCCc3cccc(F)c3)cc2)c1 [Compound 27, 6-(4-(((3-Fluorophenethyl)amino)methyl)phenyl)-4-methylpyridin-2-amine] | 58 ± 4 | 5-6 fold
